Among the data in ChEMBL document CHEMBL1641472, “Discovery of novel phenylpyridone derivatives as potent and selective MCH1R antagonists” (Bioorg Med Chem, 2011) are IC50 values, retold here.

The chains behind the UniProt entries cited, without tags or fusion partners. Where a name states a change or a piece, a line headed by the entry shows the natural chain unless it says otherwise.
UniProt Q99705: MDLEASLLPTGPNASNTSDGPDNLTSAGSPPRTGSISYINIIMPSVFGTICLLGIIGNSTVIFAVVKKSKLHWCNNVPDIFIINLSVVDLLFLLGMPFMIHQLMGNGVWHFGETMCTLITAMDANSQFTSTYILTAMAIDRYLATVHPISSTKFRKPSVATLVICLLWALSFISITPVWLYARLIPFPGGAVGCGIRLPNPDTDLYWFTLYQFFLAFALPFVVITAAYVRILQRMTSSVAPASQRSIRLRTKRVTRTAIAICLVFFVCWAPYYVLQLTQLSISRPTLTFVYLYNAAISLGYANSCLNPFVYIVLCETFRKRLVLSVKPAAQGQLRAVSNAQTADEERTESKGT

By IC50 is commonly meant the concentration needed to halve the response being measured. Higher therefore signals lower potency.

The target of the assay is Melanin-concentrating hormone receptor 1 (Homo sapiens, UniProt Q99705). In words: Displacement of [125I]MCH from human MCHR1 expressed in CHO cells by competition binding assay. In kind it is cell-based. The essentials: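 Competition binding against [¹²⁵I]-MCH radioligand on membranes from CHO cells expressing human MCH1R; IC50 values are means of two experiments.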
For orientation: In a radioligand displacement assay an active substance lowers the binding of a labelled ligand.

The structures appear in SMILES notation.

`CCN(CC)CCNc1ccc(-n2ccc(OCc3ccccc3)cc2=O)cc1` displayed an IC50 of 6.8 nM.
